Legend:
[1] = target: T1, 5-hydroxytryptamine receptor 2A (Rattus norvegicus, UniProt P14842); assay: Displacement of [3H]ketanserin from 5HT2A receptor in Sprague-Dawley rat brain by liquid scintillation spectroscopy
[2] = target: 5-hydroxytryptamine receptor 2A (Rattus norvegicus) (UniProt P14842); assay: Agonist activity at Sprague-Dawley rat 5HT2A receptor by drug discrimination assay; type: functional; conditions: filed as agonist
[3] = target: T1, 5-hydroxytryptamine receptor 2A; assay: Displacement of [3H]MDL100907 from 5HT2A receptor in Sprague-Dawley rat brain by liquid scintillation spectroscopy
Procedure, shortened: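 Frontal cortex from male Sprague-Dawley rat brains, washed in 50 mM Tris-HCl pH 7.4 and resuspended in buffer with 0.5 mM Na2EDTA, 10.0 μM pargyline, 5.7 mM CaCl2 and 0.1% ascorbate. Incubated with 0.2 nM [3H]MDL 100,907 for 15 min at 37 °C. Cinanserin (10 μM) defined nonspecific binding. Bound label was collected by GF/C filtration and counted. Values from ≥3 experiments, each in triplicate.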

Amino acid sequences for entries named in this document (tags omitted).
UniProt P14842, whole entry: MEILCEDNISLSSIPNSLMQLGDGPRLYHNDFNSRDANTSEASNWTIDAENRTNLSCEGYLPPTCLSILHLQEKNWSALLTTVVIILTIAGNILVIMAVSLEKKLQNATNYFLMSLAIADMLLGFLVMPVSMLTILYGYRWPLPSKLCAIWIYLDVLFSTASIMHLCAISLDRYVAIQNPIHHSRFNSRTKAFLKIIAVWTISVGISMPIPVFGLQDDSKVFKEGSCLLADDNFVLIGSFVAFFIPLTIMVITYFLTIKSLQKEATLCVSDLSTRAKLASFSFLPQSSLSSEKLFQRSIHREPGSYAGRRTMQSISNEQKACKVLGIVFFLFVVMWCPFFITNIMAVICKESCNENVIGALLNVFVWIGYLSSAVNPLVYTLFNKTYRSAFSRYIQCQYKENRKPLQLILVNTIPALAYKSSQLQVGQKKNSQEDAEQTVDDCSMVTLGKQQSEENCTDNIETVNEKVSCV

Row | SMILES | Ki [1] | Efficacy [2] | Ki [3]
1 | CCc1cc(OC)c(CC(C)N)cc1OC (racemic) | 100 nM |  | 
2 | COc1cc(CC(C)N)c(OC)cc1C (racemic) [DOM] |  | Agonist | 
3 | Cc1nc2sccn2c(=O)c1CCN1CCC(=C(c2ccc(F)cc2)c2ccc(F)cc2)CC1 [RITANSERIN] | 1.7 nM |  | 36 nM
